# Measurements published in patent US11124523B2, “2,6-dioxaspiro [4,5] decane derivatives and preparation method therefor and pharmaceutical applications thereof” (SHANDONG LUYE PHARMACEUTICAL CO., LTD., priority 2017, dated 2021).
# Chains of the proteins cited; added tags and fusions are not shown.
# UniProt P35372, whole entry: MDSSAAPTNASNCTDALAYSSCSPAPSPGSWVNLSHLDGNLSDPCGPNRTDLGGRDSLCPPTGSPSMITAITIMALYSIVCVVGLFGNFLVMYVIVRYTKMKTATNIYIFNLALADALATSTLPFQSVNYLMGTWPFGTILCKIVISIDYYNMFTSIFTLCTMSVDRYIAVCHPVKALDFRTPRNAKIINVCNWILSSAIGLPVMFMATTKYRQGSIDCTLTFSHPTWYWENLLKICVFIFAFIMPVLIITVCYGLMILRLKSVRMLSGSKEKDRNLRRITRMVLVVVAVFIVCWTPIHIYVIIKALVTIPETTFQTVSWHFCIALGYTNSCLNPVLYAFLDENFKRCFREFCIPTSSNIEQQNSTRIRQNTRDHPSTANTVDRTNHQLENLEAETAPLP
# Marks after values point to notes of the source that are not given here.
# Tests used:
# [1] = biological target: T1, human μ-subtype opioid receptor (hMOR) (Homo sapiens (Human), UniProt P35372); experiment: MOR β-arrestin-2 agonist activity test; assay type: cell-based; conditions: for MOR β-arrestin-2 Emax: maximum effect of enkephalin DAMGO was 100%, about 0% = no actual agonist activity; for EC50: read-out: MOR β-arrestin-2 EC50, >30000 nM = greater than the highest detection concentration
# [2] = biological target: T1, human μ-subtype opioid receptor (hMOR); experiment: MOR cAMP agonist activity test; assay type: cell-based; conditions: maximum effect of enkephalin DAMGO was 100%
# [3] = Metabolic stability in liver microsomes; assay type: in vitro ADME; conditions: human liver microsomes 0.5 mg protein/mL; 45 mg microsome protein/g liver, 20 g liver/kg
# Method: Test 3: Metabolic Stability in Liver Microsomes
# 3.1 Experimental Purpose: To test the metabolic stability of the compounds of the present disclosure in human liver microsomes
# a. All samples as well as testosterone, diclofenac and propafenone acting as reference substances were dissolved in DMSO to a storage concentration of 10 mM.
# b. Intermediate Solution: 5 μL of the substance to be tested or the reference substance was diluted with 45 μL of DMSO (with 450 μL of 1:1 methanol/water).
# c. Working Solution: the intermediate solution was diluted with 450 μL of 100 mM potassium phosphate buffer solution (pH 7.4).
# Assay Buffer: 100 mM potassium phosphate buffer (pH 7.4) • 10 mM MgCl2
# Liver Microsome Solution (final concentration: 0.5 mg protein/mL):
# Human liver microsomes, obtained from BD, Cat No. 452117, Lot No. 38291
# b. 10 μL of the working solution containing the substance to be tested or the reference substance was added to each of plates (T0, T5, T10, T20, T30, T60, NCF60).
# c. The liver microsome solution was dispensed into a 96-well plate in an amount of 680 μL/well, then 80 was added, and then T was added to each of the plates. The above incubation plate was placed at 37° C. and pre-incubated for approximately 10 minutes.
# d. 10 μL of 100 mM potassium phosphate buffer was added to each well in the NCF60 plate.
# e. […]
# T1/2 and Clint(mic) were calculated by the following formula: […]
Structure (SMILES),MOR β-arrestin-2 Emax ([1]; tested form: HCl),MOR cAMP Emax ([2]; tested form: HCl) [%],MOR β-arrestin-2 Emax [1],MOR cAMP Emax [2] [%],Intrinsic Clearance CLint(liver) in Human Liver [3] [mL/min/kg],EC50 [1] [µM]
COc1ccsc1CNCC[C@@]1(c2ccccn2)CCO[C@@]2(CCOC2)C1,about 0%*,–,–,–,–,–
COc1ccsc1CNCC[C@]1(c2ccccn2)CCO[C@@]2(CCOC2)C1,about 0%*,39.7,–,–,–,–
COc1ccsc1CNCC[C@]1(c2ccccn2)CCO[C@]2(CCOC2)C1,about 0%*,30.8,–,–,–,–
Fc1ccc([C@]2(CCNCc3scc4c3CCCC4)CCO[C@]3(CCOC3)C2)nc1,–,–,about 0%*,–,–,–
"COc1ccsc1CNCC[C@@]1(c2ccccn2)CCO[C@]2(CCOC2)C1 (single isomer, unassigned)",–,–,about 0%*,48.9,9.3,–
"Fc1ccc([C@]2(CCN[C@@H]3CCc4ccccc43)CCO[C@]3(CCOC3)C2)nc1 (single isomer, unassigned)",–,–,about 0%*,11.0,–,> 30
"Fc1ccc([C@]2(CCN[C@H]3CCc4ccccc43)CCO[C@]3(CCOC3)C2)nc1 (single isomer, unassigned)",–,–,about 0%*,90.0,20.0,> 30
